Experimental data from patent US5424205A, “Amyloidin protease and uses thereof” (Athena Neurosciences, Inc., priority 1993, dated 1995).

Target: human amyloidin protease (human)

% Control Activity (cleavage of APP592-601) (% control activity): 102
Substance: aprotinin, the bovine Kunitz trypsin inhibitor (from UniProt P00974)
